Results taken from article PMC7221482 (Neurochemistry international, 2019).

Chains of the proteins cited; added tags and fusions are not shown. Residues count along the entry.
UniProt Q8R493, 21-495: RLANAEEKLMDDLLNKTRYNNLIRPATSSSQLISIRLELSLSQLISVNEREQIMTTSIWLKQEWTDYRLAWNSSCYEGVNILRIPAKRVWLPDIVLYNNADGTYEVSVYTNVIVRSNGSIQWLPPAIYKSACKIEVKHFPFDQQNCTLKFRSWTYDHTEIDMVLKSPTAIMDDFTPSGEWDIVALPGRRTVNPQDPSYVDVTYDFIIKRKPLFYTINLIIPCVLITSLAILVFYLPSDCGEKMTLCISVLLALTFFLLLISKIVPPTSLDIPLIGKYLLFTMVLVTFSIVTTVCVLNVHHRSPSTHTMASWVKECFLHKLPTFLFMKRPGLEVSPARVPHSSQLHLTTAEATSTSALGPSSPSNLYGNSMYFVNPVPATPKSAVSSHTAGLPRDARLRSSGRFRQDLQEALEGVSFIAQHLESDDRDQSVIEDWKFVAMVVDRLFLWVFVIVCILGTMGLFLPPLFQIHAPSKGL
UniProt Q8R4G9, 26-499: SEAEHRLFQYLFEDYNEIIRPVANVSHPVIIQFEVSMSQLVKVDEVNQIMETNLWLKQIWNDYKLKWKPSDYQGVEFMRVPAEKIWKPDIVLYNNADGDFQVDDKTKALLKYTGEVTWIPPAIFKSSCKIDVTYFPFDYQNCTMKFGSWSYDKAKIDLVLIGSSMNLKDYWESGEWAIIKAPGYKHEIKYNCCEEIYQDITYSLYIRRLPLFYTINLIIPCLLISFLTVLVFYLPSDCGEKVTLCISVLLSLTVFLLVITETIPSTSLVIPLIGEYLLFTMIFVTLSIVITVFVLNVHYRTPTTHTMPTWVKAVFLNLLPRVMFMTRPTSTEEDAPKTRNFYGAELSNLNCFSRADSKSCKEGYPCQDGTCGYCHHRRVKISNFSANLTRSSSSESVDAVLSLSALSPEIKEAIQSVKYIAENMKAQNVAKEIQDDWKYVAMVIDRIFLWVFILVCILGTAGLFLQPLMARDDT

Target: habenular mα3β4* AChRs (Mus musculus, UniProt Q8R493+Q8R4G9)
Assay: Patch-clamp recordings of ACh-evoked currents from MHb
Assay type: cell-based

## CN(C)CCCC1(c2ccc(F)cc2)OCc2cc(C#N)ccc21 (racemic) [(±)-citalopram, 1-[3-(dimethylamino)propyl]-1-(4-fluorophenyl)-1,3-dihydro-5-isobenzofurancarbonitrile]
Inhibition of ACh-evoked currents, MHb (VI) neurons
  nH (Hill coefficient): 0.90 ± 0.10
one-site blocking model, Eq. (1)
  electrical distance (δ) of the binding site along the ion channel: 0.40
